Laboratory results: ChEMBL document CHEMBL3632588 (Medchemcomm, 2015)

Assay: Cytotoxicity in mouse NMuMG cells assessed as cell growth at 20 uM after 72 hrs by colorimetry
Format: cell-based

SMILES	Activity [%]
COC(=O)[C@@H]1N2C(=O)C(Br)(Br)[C@H]2S[C@@]1(C)CSc1nc2ccccc2o1	40
COC(=O)[C@@H]1N2C(=O)C(Br)(Br)[C@H]2S[C@@]1(C)CSc1nnnn1-c1ccccc1	10
COC(=O)[C@@H]1N2C(=O)[C@H](Br)[C@H]2S[C@@]1(C)CCl	95
COC(=O)[C@@H]1N2C(=O)C(Br)(Br)[C@H]2S[C@@]1(C)CSc1nc2ccccc2s1	49
COC(=O)[C@@H]1N2C(=O)C(Br)(Br)[C@H]2S[C@@]1(C)CSc1nnn[nH]1	82
COC(=O)[C@@H]1N2C(=O)[C@H](Cl)[C@H]2S[C@@]1(C)CCl	78
C[C@@]1(CCl)S[C@H]2N(C(=O)C2(Br)Br)[C@H]1C(=O)OCc1ccccc1	41
